Where two headings read alike, the source gives them in different places.
Target: full length MPS1 (Homo sapiens (Human), UniProt P33981)
Assay: Measurement of inhibition of MPS1 kinase (Caliper EZ reader mobility-shift enzyme assay)
Type: biochemical
Procedure: Measurement of Inhibition of MPS1 Kinase
The reaction was carried out for 60 min at room temperature and stopped by the addition of buffer (10 μl) containing 20 mM EDTA, 0.05% (v/v) Brij-35, in 0.1M HEPES-buffered saline (Free acid, Sigma, UK). The plate was read on a Caliper EZ reader II (Caliper Life Sciences).
The % inhibition of the compounds is calculated relative to the means of selected control wells.

IC50 (full length MPS1 12.5 nM or 3 nM, H236 peptide 5 μM, ATP 10 μM, 60 min at room temperature, read-out: MPS1 IC50) | Structure (SMILES) | IC50
– | COc1cc(-c2cnn(C)c2)ccc1Nc1ncc2ccnc(NCC(C)O)c2n1 (racemic) [Example 128, Racemic 1-(2-(2-Methoxy-4-(1-methyl-1H-pyrazol-4-yl)phenylamino)pyrido[3,4-d]pyrimidin-8-ylamino)propan-2-ol] | 8 nM
7 nM | COc1cc(-c2cnn(C)c2)ccc1Nc1ncc2ccnc(N3CCOC(C)C3)c2n1 (racemic) [Example 137, Racemic N-(2-Mthoxy-4-(1-methyl-1H-pyrazol-4-yl)phenyl)-8-(2-methylmorpholino)pyrido[3,4-d]pyrimidin-2-amine] | –
